{"source": "patent US20150253335", "proteins": {"B1": {"name": "acyl carrier protein hydrolase (AcpH) from Pseudomonas fluorescens NCIMB 10586 (protein)", "chain": "MNYLAHLHLGGQLPAQLLGSLYGDFVKGRLQGQFSPQIEAAIQLHRSIDRFTDSHPLVGEALSRFSQTRRRYAGIVLDVFFDHCLARDWALYADQPLERFTSHVYQVLAAEPALPGRLAQIAPYMAADDWLGSYREFAVMEQVLRGISRRLTQPEELGYAMQELRVLYEPLSEDFRLFYPELQAFALQF"}}, "target": "T1, holo-E. coli AcpP", "T1 chain": "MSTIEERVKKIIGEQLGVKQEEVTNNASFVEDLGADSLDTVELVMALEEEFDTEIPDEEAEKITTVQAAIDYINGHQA"}
{"protein": "B1", "values": [{"measurement": "kcat/KM", "value": 1000, "unit": "M⁻¹ s⁻¹"}]}
